Data as given in PubChem BioAssay (NCI).
Values joined by “and” are separate entries in the source; they are usually repeats but may differ in a detail not shown here. Identical values can stand only once. This is a selection; strong and weak results do not stand in their true shares.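 How to read the values: 0–100, growth inhibition (40 = 60% inhibited); 0, no net growth; -100 to 0, cell death (-40 = 40% of starting cells died; -100 = all dead).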 Active and inactive are the calls of the source. Rule for the calls: active = growth percent below 10; inactive = the rest.

Test system: MDA-MB-468 breast
Assay: NCI-60 one-dose screen, 48 h (100 = growth as untreated, 0 = no growth, -100 = all killed)
Conditions: 10 µM unless noted

Q: How did the growth turn out when `O=C(OC1CN2CCC1CC2)c1ccccc1` (stereo not given) was run?
A: inactive: 100%

Q: How did the growth turn out when `CC(=O)Nc1ccc([As](=O)(O)O)cc1` was run?
A: inactive: 106%

Q: How did the growth turn out when `O=[N+]([O-])N=C1NCCN1` was run?
A: inactive: 98.3% and inactive: 100%

Q: With `CCOC(=O)NC(c1ccccc1[N+](=O)[O-])P(=O)(O)Nc1ncn[nH]1` (stereo not given) as the compound, how does the growth read?
A: inactive: 119%

Q: How did the growth turn out when `CCCCOP(=O)(OCCCC)N1CCCC1C(=O)O` (stereo not given) was run?
A: inactive: 106%

Q: `COc1ccc(N)c([N+](=O)[O-])c1[N+](=O)[O-]` was tested. Which growth did it give?
A: inactive: 92.6%

Q: `NC(=S)N/N=C/c1ccc(N(CCF)CCCl)cc1` was tested. Which growth did it give?
A: inactive: 88.2%

Q: With `ClCCN(Cc1ccc(Cl)cc1)Cc1ccc(Cl)cc1` as the compound, how does the growth read?
A: inactive: 63.2%

Q: With `ClCCN1Cc2ccccc2C1` as the compound, how does the growth read?
A: inactive: 91.3%

Q: Which growth does the source give for `C=NNc1ccc([N+](=O)[O-])cc1[N+](=O)[O-]` here?
A: inactive: 84.3%

Q: `CCCOP(=S)(Nc1nc(N)cc(=O)[nH]1)OCCC` was tested. Which growth did it give?
A: inactive: 87.2%

Q: `Cc1ccc(S(=O)(=O)N(CCCN)CCCc2c(C)nc(N)[nH]c2=O)cc1` was tested. Which growth did it give?
A: inactive: 103%

Q: With `CCCC1OP(=O)(Nc2ccccc2)OCC1CC` (stereo not given) as the compound, how does the growth read?
A: inactive: 106%

Q: With `O=P(Nc1ncccn1)(N1CC1)N1CC1` as the compound, how does the growth read?
A: inactive: 93.3%

Q: Which growth does the source give for `COC(=O)C1(C)COP(=O)(NCc2ccccc2)OC1` (stereo not given) here?
A: inactive: 116%

Q: `[N-]=[N+]=NS(=O)(=O)c1ccc([N+](=O)[O-])cc1` was tested. Which growth did it give?
A: inactive: 101%

Q: Which growth does the source give for `O=C(O)CNc1ccc([As](=O)(O)O)cc1` here?
A: inactive: 100%

Q: With `O=C(OCCNCCCl)c1ccccc1` as the compound, how does the growth read?
A: inactive: 101%

Q: How did the growth turn out when `COC(=O)C1(C)COP(=O)(N2CCCC2)OC1` (stereo not given) was run?
A: inactive: 101%

Q: For `O=P1(N(CCCl)CCCl)OCCCN1CCCl` (stereo not given), which growth is on record?
A: inactive: 104%

Q: Which growth does the source give for `Cc1cc(C)cc(OP(=O)(Cl)Oc2cc(C)cc(C)c2)c1` here?
A: inactive: 117%

Q: `ClCCN1CCNCC1` was tested. Which growth did it give?
A: inactive: 98.4%

Q: For `O=[N+]([O-])C1C(O)C(O)C([N+](=O)[O-])C(O)C1O` (stereo not given), which growth is on record?
A: inactive: 93.1%

Q: For `CN(CCCl)CCC(=O)c1ccccc1`, which growth is on record?
A: inactive: 76.7%

Q: `ClCCNCC1COc2ccccc2O1` (stereo not given) was tested. Which growth did it give?
A: inactive: 107%

Q: `O=C(c1ccc([N+](=O)[O-])cc1)N(CCCl)CCCl` was tested. Which growth did it give?
A: inactive: 99.4%

Q: Which growth does the source give for `O=C(CCC(=O)Oc1c(Cl)cc([N+](=O)[O-])cc1[N+](=O)[O-])Oc1c(Cl)cc([N+](=O)[O-])cc1[N+](=O)[O-]` here?
A: inactive: 102%

Q: Which growth does the source give for `ClP1Nc2cncnc2N1` (stereo not given) here?
A: inactive: 113%

Q: For `COc1cc([N+](=O)[O-])cc([N+](=O)[O-])c1`, which growth is on record?
A: inactive: 107%

Q: Which growth does the source give for `O=C1NC(c2ccccc2)(c2ccccc2)C(=O)N1P(=O)(Oc1ccccc1)Oc1ccccc1` here?
A: inactive: 99.7%

Q: Which growth does the source give for `CCN(CCCl)Cc1ccccc1` here?
A: inactive: 104%

Q: How did the growth turn out when `O=[N+]([O-])c1cc2cn[nH]c2cc1[N+](=O)[O-]` was run?
A: inactive: 114%

Q: `ClC(Cl)(Cl)C1SCCS1` was tested. Which growth did it give?
A: inactive: 121%

Q: How did the growth turn out when `OC(CNCCCl)C(O)C(O)C(O)CNCCCl` (stereo not given) was run?
A: inactive: 96.5%

Q: With `COC(=O)C(=[N+]=[N-])C(=O)c1cc([N+](=O)[O-])cc([N+](=O)[O-])c1` as the compound, how does the growth read?
A: inactive: 104%
